Here are results for one compound from patent US7700602B2, “Amino-5,5-diphenylimidazolone derivatives for the inhibition of β-secretase” (Wyeth LLC, priority 2004, dated 2010).

The experiment has as its target T1, human BACE2 (Homo sapiens, UniProt Q9Y5Z0).
T1 sequence (Q9Y5Z0 63-518): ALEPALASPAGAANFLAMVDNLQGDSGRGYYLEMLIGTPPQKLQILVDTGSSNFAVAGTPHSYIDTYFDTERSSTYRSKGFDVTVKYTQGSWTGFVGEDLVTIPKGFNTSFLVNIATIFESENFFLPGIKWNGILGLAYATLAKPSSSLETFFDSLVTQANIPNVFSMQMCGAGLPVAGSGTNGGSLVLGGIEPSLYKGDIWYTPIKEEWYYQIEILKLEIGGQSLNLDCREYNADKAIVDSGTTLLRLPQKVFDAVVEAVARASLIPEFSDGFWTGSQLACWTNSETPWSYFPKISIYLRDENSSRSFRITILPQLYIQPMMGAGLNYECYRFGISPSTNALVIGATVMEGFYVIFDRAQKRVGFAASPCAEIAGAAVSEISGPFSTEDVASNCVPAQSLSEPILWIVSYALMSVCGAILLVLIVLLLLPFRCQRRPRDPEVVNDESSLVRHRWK
The experiment in a line: Fluorescent Kinetic Assay for Human Recombinant BACE 2 (selectivity BACE1/BACE2).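 Note: cleavage rate from the linear slope of fluorescence (excitation 320 nm, emission 420 nm) recorded every 40 s over 30 min at room temperature, sodium acetate buffer with 0.05% CHAPS.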 To be noted: selectivity BACE1 over BACE2; 1.5 nM human BACE2, 25 μM substrate, pH 4.5. Type of experiment: biochemical.

Regarding `Cc1cc(C2(c3cccc(-c4cncnc4)c3)N=C(N)N(C)C2=O)ccc1O[C@H](C)c1ccccc1` (stereo partly drawn) [Example 131, 2-amino-3-methyl-5-{3-methyl-4-[(1R)-1-phenylethoxy]phenyl}-5-(3-pyrimidin-5-ylphenyl)-3,5-dihydro-4H-imidazol-4-one], the BACE1/BACE2 selectivity entry was “II (II = 10-100-fold selectivity)”.
